Measurements: patent US10159656B2, “Methods for use of epinephrine fine particles for treatment of conditions responsive to epinephrine” (NOVA SOUTHEASTERN UNIVERSITY, priority 2013, dated 2018)
“And” between values parts separate entries of the source, which are not always exact repeats. Identical values can stand only once. Like-named read-outs stand apart in the source and are kept apart here.

Settings: after processing, one cycle at 30,000 Psi

With `CNC[C@H](O)c1ccc(O)c(O)c1.O=C(O)C(O)C(O)C(=O)O` [EpiBit After Processing, epinephrine bitartrate microcrystals] the “Pdi (polydispersity index)” value was 0.185 and 0.187 and 0.202 and the “Pdi (polydispersity index)” value (listed as EpiBit crystals after processing) was 0.185±0.019.
